These are literature values, as cited in publication PMC4216217 (Journal of Medicinal Chemistry, 2014).

The term pKi denotes the Ki on a negative log10 scale, so that one unit is a factor of ten.

pKi: −log10 of the molar value.

For the data set, the target named is D3 receptor. The note with it: read-out: Ki, D3 receptor; cited from earlier work.

Take `CCCN(CC[C@]1(O)C[C@@H](NC(=O)c2ccc3ccccc3c2)C1)[C@H]1CCc2nc(N)sc2C1` [compound 2]: the pKi was > 9.00.
